ChEMBL document CHEMBL6096698, “Discovery of a Selective and Orally Bioavailable RET Degrader with Effectiveness in Various Mutations” (J Med Chem, 2025)

Tested on: BaF3
Assay: PROTAC activity at CRBN/KIF5B-RET G810C mutant (unknown origin) expressed in mouse BaF3 cells assessed as fold change in RET level at 20 nM incubated for 24 hrs by quantitative proteomic analysis relative to control
Assay type: cell-based

## COc1ccc(CN2C3CC2CN(c2ccc(-c4cc(N5CCC(N6CCN(CCCC#Cc7cccc8c7CN(C7CCC(=O)NC7=O)C8=O)CC6)CC5)cn5ncc(C#N)c45)cn2)C3)cn1 (stereo unspecified)
  fold change (FC): < 0.22
